According to patent publication US20030147936A1, “Prostatic hormonal implants treatment of prostate cancer” (priority 2002, published 2003):

Test system: recurrent poor prognostic prostate cancer
Conditions: DES 1 mg three times per day by mouth; follow-ups
Experimental: Since this hormonal treatment was rendered at recurrence after radiation therapy, it is termed as secondary hormonal treatment.
Later it was reduced to 1 mg per day.

SMILES: CC/C(=C(/CC)c1ccc(O)cc1)c1ccc(O)cc1 [DES, diethylstilbestrol]
- duration of maintained biochemical tumor control: four
